From PMC5382891 (Scientific Reports, 2017)

Amino acid sequences for entries named in this document (tags omitted). A change or cut given only in a name is not applied to a line headed by its entry.
UniProt P41146: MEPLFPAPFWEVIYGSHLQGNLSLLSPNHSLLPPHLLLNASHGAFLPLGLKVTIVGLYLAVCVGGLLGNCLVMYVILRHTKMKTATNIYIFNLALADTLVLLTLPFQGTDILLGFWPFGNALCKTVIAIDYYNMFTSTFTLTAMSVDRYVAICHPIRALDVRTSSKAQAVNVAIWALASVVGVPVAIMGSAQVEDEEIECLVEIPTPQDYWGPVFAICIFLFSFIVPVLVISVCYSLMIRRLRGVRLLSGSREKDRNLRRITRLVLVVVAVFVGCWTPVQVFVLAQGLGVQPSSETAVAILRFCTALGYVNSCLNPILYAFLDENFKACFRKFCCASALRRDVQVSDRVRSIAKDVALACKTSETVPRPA

Columns and labels:
[1] = target: human recombinant NOP receptor (Homo sapiens, UniProt P41146); details: for Emax ± SEM: mean ± SEM of at least 4 separate experiments in duplicate
NOP = details: R isomer showing the higher affinity; cited from earlier work

Compound | Emax ± SEM ([1]; Table 3) | agonist behaviour (efficacy class) ([1]; calcium mobilization assay) | difference in NOP affinity between the two enantiomers (NOP) | pEC50(CL95%) ([1]; Table 3, CHO cells coexpressing NOP receptor and Gαqi5, mean of at least 4 separate experiments in duplicate, CL95% in brackets, * P < 0.05)
O=C1NCN(c2ccccc2)C12CCN(C1Cc3cccc4cccc1c34)CC2 (centres unmarked) | 165 ± 14 percent fluorescence intensity over the basal values | full agonist activity | less than ten fold | –
NC(=O)CCCCCCN1CN(c2ccccc2)C2(CCN(C3Cc4cccc5cccc3c45)CC2)C1=O (centres unmarked) | 143 ± 9 percent fluorescence intensity over the basal values | – | – | 8.24 (7.84–8.65)
